## Apparent affinities of Ab-14 variants for a coronavirus HR2 peptide

The measurements come from Li et al. 2023 (doi:10.1038/s41467-023-39022-2) through the FLAb antibody collection.

Binding partner: SARS-CoV-2 spike HR2 peptide, sequence PDVDLGDISGINAS.

Each scFv is VH, the linker GGGGSGGGGSGGGGS, VL, as in the parent Ab-14, and differs from it in the CDRs of the heavy chain only.
VH: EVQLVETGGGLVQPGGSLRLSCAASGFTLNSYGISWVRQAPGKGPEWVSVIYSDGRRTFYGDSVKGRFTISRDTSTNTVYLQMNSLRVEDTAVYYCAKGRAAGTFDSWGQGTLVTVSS
VL: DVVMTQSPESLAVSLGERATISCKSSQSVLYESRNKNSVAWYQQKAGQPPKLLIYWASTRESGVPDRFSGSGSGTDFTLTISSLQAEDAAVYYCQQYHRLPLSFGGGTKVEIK

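Phage display of a naive human antibody library on the peptide gave the parent. These sequences belong to a second round, designed from the earlier measurements on random variants of the parent. Group labels follow the data file (Ctrl: baseline library sampled from a position-specific scoring matrix, with some repeated check sequences; Rand: our label for a block that the file lists under HC and that is probably the random mutants of the ten best first-round binders; En: ensemble of fine-tuned language models; GP: Gaussian process model; GPLM: also part of the Gaussian process libraries; HC: hill climbing; Gen: genetic algorithm; Gibbs: Gibbs sampling; a sequence that several methods proposed may carry one label only). AlphaSeq pools MATa yeast showing the antibodies with MATalpha yeast showing the peptide. Pairs that bind mate more often; barcode pairs of the diploids are counted by sequencing. Each replicate has its own calibration line, from reference interactions of the BCL2 family. Mating was done six times.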

Variants are written as CDR1, CDR2 and CDR3 of the heavy chain (limits as in the source). Parent: GFTLNSYGIS, VIYSDGRRTFYGDSVK, GRAAGTFDS. The read-out is the apparent dissociation constant on a log10 scale (nM): the lower, the stronger. A mean of the replicates is given; it leaves out those without a signal. "not detected" marks a missing value. The strain was present, yet no cells mated with the target were sequenced in any replicate, which points to weak or no binding. Values of this round are not directly comparable with the first-round values of the same sequences. As a blank, each scFv also met three strains without target: over all heavy chain designs, 1% of these pairings were detected, typically at 2.08 and seldom below 0.84. Also given: how often the same scFv was detected with the empty control strains. The parent sequence was in this pool as ten entries: three were never detected, three once, and four in most replicates, with averages from 0.34 to 2.37. In the paper, a design with two or fewer of six values counts as a poor binder.

CDR-H1 | CDR-H2 | CDR-H3 | group | mean log10 Kd (nM) | detected | empty controls
GFTLNSYGIW | VIYSDGRRTFYGDSVK | GRAAGTFES | Ctrl | not detected | 0 of 6 | 0 of 18
GFDLNEYGIS | VIYADGKRTAYTDSVK | GNVAGTFDL | En_Gen | -0.16 | 6 of 6 | 0 of 18
EFNLNSYGIS | VIYSDGRRTFYGDSVK | GRTAGTFDS | GP_Gen | not detected | 0 of 6 | 0 of 18
GFQIDEYGIS | VIYADGLRAAYSQAVK | GMDTGDFMD | En_Gibbs | not detected | 0 of 6 | 2 of 18
GFTLNEYGIS | VIYSDGRRTMYTQSVK | GRFAGTFDS | Rand | 1.06 | 6 of 6 | 0 of 18
GFTLDEYGIS | VIYADGRRTFYADSVK | GNVAGTFDT | En_HC | -0.40 | 6 of 6 | 0 of 18
GFELNTYGIS | VIYSDGRRTFYGDSVK | GREAGTFDS | GP_Gen | not detected | 0 of 6 | 0 of 18
GFTLNSYGYS | VIYSDGYRTFYGDSVK | GRAAGTGDS | Ctrl | not detected | 0 of 6 | 0 of 18
GFSIDEYGIS | VIYADGLRQHYANAVK | GEIAGTFDT | En_Gibbs | 1.21 | 3 of 6 | 0 of 18
GFSLNEYGIS | VIYSDGRRTFYCDSVK | GWAAGTFDR | GP_HC | not detected | 0 of 6 | 0 of 18
GFDLNEYGIS | VIYADGMRTAYADDVK | GANAGTFDV | En_Gen | -0.57 | 6 of 6 | 0 of 18
GFTLNEYGIS | VIYSDGRRTFYQDSVK | GRAGGTFDS | GPLM_HC | 0.82 | 6 of 6 | 0 of 18
GFDLNEYGIS | VIYADGKRTFYADSVK | GEVAGTFDV | En_Gen | -0.94 | 6 of 6 | 0 of 18
GFDLNEYGIS | VIYADGKRTFYADSVK | GQVAGTFDL | En_HC | 0.53 | 6 of 6 | 2 of 18
GFTLNSYGIT | VIYSDGRRTFYGNSVR | GRAAGTFDS | Ctrl | not detected | 0 of 6 | 0 of 18
GFTLDEYGIS | VIYADGMRTFYADSVK | GNVAGTFDQ | En_HC | -0.64 | 6 of 6 | 0 of 18
GFHLNSYGIS | VIYSDGRRTFYKDSVK | GRNAGTADS | Ctrl | 2.60 | 1 of 6 | 0 of 18
GFDLNEYGIS | VIYADGSRKFYADSVK | GENAGTFDV | En_HC | 0.02 | 6 of 6 | 0 of 18
GFSLNSYGIS | VIYSDGEKTFYGDDVK | GNCAGTFPS | Ctrl | not detected | 0 of 6 | 0 of 18
GDSLNEYGIS | VIYADGRRSVYTDNVK | GHAGGIFMS | En_Gibbs | not detected | 0 of 6 | 2 of 18
GFNLNSYGIS | VIYSDGRRTFYGDQVK | GKLAGTFDS | GP_Gibbs | 1.20 | 2 of 6 | 0 of 18
GFDLNEYGIS | VIYADGMRTAYADDVK | GGVAGTFDV | En_Gen | -0.68 | 6 of 6 | 0 of 18
GFNLNSYGIS | VIYSDGHRTFYGDNVK | GRAAGTFDS | Ctrl | 1.96 | 6 of 6 | 0 of 18
GFDLDEYGIS | VIYADGVRTAYADSVK | GNVAGTFDT | En_Gen | -0.34 | 5 of 6 | 0 of 18
GFDLNSYGIS | VIYSDGRRTFYGDSVK | GKTAGTFDG | GP_Gen | 0.22 | 6 of 6 | 0 of 18
GFDLNSYGIS | VIYSDGWRTFYTDSVK | GRQAGTFDS | GP_Gibbs | 1.13 | 6 of 6 | 0 of 18
GFSLNYYGIS | VIYSDGRRTFYGDSVK | GRTAGTFDT | GPLM_Gen | 1.21 | 5 of 6 | 0 of 18
GFTLNSYGVS | VIYSDGRRTAYGDSVK | GRAAKQFDV | Ctrl | not detected | 0 of 6 | 1 of 18
QNTLNSYGIS | VIYSDGRRTFYQDSVK | CRQSGTDDE | Ctrl | 1.60 | 1 of 6 | 0 of 18
GFTLNEYGIS | VIYSDGRRTFYKDSVK | GRTAGTFDS | GPLM_Gen | -0.06 | 6 of 6 | 1 of 18
GKDIEEYGVS | VIYADGKRNAYANKVK | GDNAGSFVD | En_Gibbs | not detected | 0 of 6 | 0 of 18
GFWLNEYGIS | VIYSDGRRTFYHDSVK | GRAAGTFDF | GP_HC | 3.37 | 2 of 6 | 0 of 18
LFTLNEYGIS | VIYSDGRRTFYADSVK | GRTAGTFDS | GP_HC | 0.65 | 6 of 6 | 1 of 18
GETLNSYGIS | VIYSDGRRTFYIDSVK | GRAAGTFES | Ctrl | 1.82 | 1 of 6 | 1 of 18
GFSLNSYGIS | VIYSDGRRTFYADSVK | GTEAGTFDS | GPLM_Gen | 0.59 | 5 of 6 | 0 of 18
GFTLESYGIS | VIYSDGRRTFYDDSVK | GQLAGTFDS | GPLM_HC | 0.75 | 6 of 6 | 0 of 18
GFTLESYGIS | VIYADGRRVFYSDSVK | GRAAGTFDQ | Ctrl | -0.05 | 6 of 6 | 0 of 18
GFTLNSYGIS | VIYSDGRRTFYTDSVK | GRAAGEFDS | Ctrl | not detected | 0 of 6 | 0 of 18
GFDLNEYGIS | VIYADGQRTFYADSVK | GQAAGTFDI | En_HC | not detected | 0 of 6 | 0 of 18
GFDLDEYGIS | VIYADGRRTAYSDSVK | GQVAGTFDV | En_Gen | -0.83 | 6 of 6 | 1 of 18
GFPLNDYGIS | VIYSDGRRTFYGDSVK | GRQAGTFDS | Ctrl | 1.21 | 6 of 6 | 0 of 18
GFTSNSYGIS | VIYADGARTFYGDSVK | GRAAGTNKS | Rand | 2.78 | 5 of 6 | 0 of 18
GFDLNEYGIS | VIYADGKRTAYVDDVK | GNVAGTFDT | En_Gen | -0.50 | 6 of 6 | 0 of 18
GFTLNSYGIS | VIYSDGRRTFYIDSVK | GQTAGTFDT | GPLM_Gen | 0.03 | 6 of 6 | 0 of 18
KFDLNSYGIS | VIYSDGKRTFYGDSVK | GRTAGTFDS | GP_Gen | 0.43 | 6 of 6 | 0 of 18
GFSLNSYGIS | VIYSDGRRTFYGDSVK | GQAAGTFDW | GPLM_Gen | not detected | 0 of 6 | 0 of 18
GFELNSYGIS | VIYSDGRRTFYADWVK | GRTAGTFDS | GP_Gen | 1.12 | 6 of 6 | 0 of 18
GFDLDQYGIS | VIYADGMRSVYADDVK | CHWGGIFLV | En_Gibbs | not detected | 0 of 6 | 0 of 18
GFDLNSYGIS | VIYSDGMRTFYIDSVK | GRTAGTFDS | GP_Gen | 0.18 | 6 of 6 | 0 of 18
GFSLDEYGIS | VIYADGMRTFYADSVK | GNVAGTFDV | En_HC | -0.32 | 6 of 6 | 0 of 18

Picked from the list: the 8 lowest averages where every replicate gave a value.

CDR-H1 | CDR-H2 | CDR-H3 | group | mean log10 Kd (nM) | detected | empty controls
GFDLNEYGIS | VIYADGKRTFYADSVK | GEVAGTFDV | En_Gen | -0.94 | 6 of 6 | 0 of 18
GFDLDEYGIS | VIYADGRRTAYSDSVK | GQVAGTFDV | En_Gen | -0.83 | 6 of 6 | 1 of 18
GFDLNEYGIS | VIYADGMRTAYADDVK | GGVAGTFDV | En_Gen | -0.68 | 6 of 6 | 0 of 18
GFTLDEYGIS | VIYADGMRTFYADSVK | GNVAGTFDQ | En_HC | -0.64 | 6 of 6 | 0 of 18
GFDLNEYGIS | VIYADGMRTAYADDVK | GANAGTFDV | En_Gen | -0.57 | 6 of 6 | 0 of 18
GFDLNEYGIS | VIYADGKRTAYVDDVK | GNVAGTFDT | En_Gen | -0.50 | 6 of 6 | 0 of 18
GFTLDEYGIS | VIYADGRRTFYADSVK | GNVAGTFDT | En_HC | -0.40 | 6 of 6 | 0 of 18
GFSLDEYGIS | VIYADGMRTFYADSVK | GNVAGTFDV | En_HC | -0.32 | 6 of 6 | 0 of 18